In patent publication US20070027073A1, “Long-acting derivatives of pyy agonists” (priority 2003, published 2007):

System: normal C57BL/6 male mice
Test: mouse re-feeding model, food intake after starvation
Type: in vivo
Method: To evaluate the efficacy of (FMS)2-PYY3-36 as modulator of food intake, it was studied in a re-feeding model. Briefly, normal C57BL/6 male mice were subjected to a starvation period of 24 h with unrestricted supply of drinking water. At different time points during the starvation the mice were injected intra-peritoneally with either saline, PYY3-36 or (FMS)2-PYY3-36. At the end of the starvation period, the mice were presented with pre-weighted supply of standard chow and the amount of food consumed during the first 2 h was recorded. Each study group consisted of 10 mice and the amount of food consumed was measured per 10 mice. When mice were injected with 2.5 μg of PYY3-36 in 0.1 ml saline at time 24 h (immediately before providing the food), there was a 28% reduction of food intake as compared with a control group of mice injected with saline. When mice were injected with 2.5 μg of PYY3-36 in 0.1 ml saline at time 23 h 45 min (15 min. before providing the food), there was a 40% reduction of food intake as compared with a control group of mice injected with saline. The improved response to PYY3-36 in the second experiment was due to higher food consumption in the group injected with saline at 23 h 45 min as compared with the group injected with saline at 24 h. […] In another study, mice were injected with 1 μg of PYY3-36 at time 23 h, 45 min. and the amount of food consumed was reduced by 31% as compared with a saline-injected group. Thus, a dose-response was obtained.
The efficacy of (FMS)2-PYY3-36 as a modulator of food intake was studied using a re-feeding model. A group of 10 normal C57BL/6 male mice at the age of 9 weeks were subjected to starvation for a period of 24 h with unrestricted supply of drining water. At the end of this period, the mice were injected intra-peritoneally with either 0.1 ml saline or 2.5 μg PYY3-36 dissolved in 0.1 ml saline per mouse. The mice were then immediately presented with pre-weighted supply of standard chow and the amount of food consumed during the first 2 h was recorded. Each study group consisted of 10 mice and the amount of food consumed as reported in this example was per 10 mice. The amount of chow consumed by the group of 10 saline-injected control mice was 9.9 g. The amount of chow consumed by the group of 10 PYY3-36-injected mice was 7.1 g.
Two groups of 10 normal male C57BL/6 mice at the age of 10 weeks were subjected to starvation for a period of 24 h, with unrestricted supply of drinking water. At time 23 h 45 min, one group of mice was injected intraperitoneally with 0.1 ml saline and the second group was injected with 2.5 μg PYY3-36 dissolved in 0.1 ml saline per mouse. The mice were presented at 24 h with a pre-weighted supply of standard chow and the amount of food consumed during the first 2 h was recorded. The amount of chow consumed by the group of 10 saline-injected control mice was 10.9 g. The amount of chow consumed by the group of 10 PYY3-36-injected mice was 6.5 g.
Two groups of 10 normal male C57BL/6 mice at the age of 12 weeks were subjected as before to starvation for a period of 24 h with unrestricted supply of drinking water. At time 19 h, one group of mice was injected intra-peritoneally with 0.1 ml saline and the second group was injected with 2.5 μg PYY3-36 dissolved in 0.1 ml saline per mouse. The mice were presented at 24 h with a pre-weighted supply of standard chow and the amount of food consumed during the first 2 h was recorded. The amount of chow consumed by the group of 10 saline-injected control mice was 11.2 g. The amount of chow consumed by the group of 10 PYY3-36-injected mice was 11.4 g. […] Therefore, when PYY3-36 is administered at a dose of 2.5 μg per mouse, its effect on food intake is lost after 5 h.
Two groups of 10 normal male C57BL/6 mice at the age of 12 weeks were subjected to starvation for a period of 24 h with unrestricted supply of dinking water. […]

[1] = 20 μg given 4 h before re-feeding at 24 h
[2] = 20 μg i.p. at time 45 h (so in the source), food at 24 h, first 2 h
[3] = 50 μg i.p. at time 23 h, food at 29 h (starvation 29 h), first 2 h
[4] = 3 microgram per mouse i.p. at time 23 h 45 min, food at 24 h, first 2 h

FMS-Ile-Lys(e-FMS)-Pro-Glu-Ala-Pro-Gly-Glu-Asp-Ala-Ser-Pro-Glu-Glu-Leu-Asn-Arg-Tyr-Try-Ala-Ser-Leu-Arg-His-Tyr-Leu-Asn-Leu-Val-Thr-Arg-Gln-Arg-Tyr-NH2 [(FMS)2-PYY3-36]
amount of food consumed relative to that consumed by saline-injected group (5 μg per mouse at time 23 h 45 min): 90% | reduction of food consumed as compared with saline-injected group (20 μg at time 5 h, 19 h before re-feeding, food consumed at time 24-26 h): 26% | amount of chow eaten by the group of 10 mice [1]: 7.4 g | reduction in food intake vs saline [1]: 40% | amount of chow consumed by the group of 10 mice [2]: 8.3 g | reduction of food consumed as compared with saline-injected control group [2]: 26% | reduction of food consumed as compared with saline-injected group (50 μg at time 18 h, 6 h before re-feeding): 49% | amount of chow consumed by the group of 10 mice [3]: 5.9 g | reduction of food consumed as compared with saline-injected control group [3]: 51% | amount of chow consumed by the group of 10 mice [4]: 9.9 g | effect on food intake (reduction vs saline) [4]: 10%
